Our source for the IC50 values is patent publication US20250263408A1 (Uniquest Pty Ltd, priority 2022, published 2025).

This assay has as its target T1, Syk (Homo sapiens, UniProt P43405).
T1 construct: purchased Promega
Put plainly: Syk Biochemical Assay (ADP-Glo luminescence). As to conditions: ATP 40 μM final, 60 minutes, read-out: SYK Biochem IC50. On the procedure: Compounds were serially diluted in 100% DMSO, prior to an intermediate dilution in water. In a low volume white 384-well Proxiplate (Perkin Elmer), 1 μL of compound (0.4% final DMSO) was added to 3 μL of 10 ng/well Syk (Promega) and 0.2 mg/mL Poly-E4Y1 substrate (Promega) in assay buffer (final 40 mM Tris-HCl pH 7.4, 20 mM MgCl2, 0.1 mg/mL BSA) for 5 minutes. The reaction was initiated by addition of 1 μL of ATP (40 μM final) and allowed to proceed for 60 minutes at room temperature. The reaction was terminated by addition of 5 μL of ADP-Glo Reagent Mix (Promega) containing 1 mM MgCl2 for 45 minutes at room temperature. 10 μL of Kinase Detection Reagent (Promega) was added and incubated for 10 minutes at room temperature, before luminescence was measured using an Ensight Multimode Plate Reader (Perkin Elmer).
A general note: ADP-Glo first removes unused ATP, then detects ADP through luciferase.

Consider “5-{[(2S,6R)-6-methylmorpholin-2-yl]methoxy}-7-[1-(propan-2-yl)-1H-pyrrol-3-yl]quinoline [Compound 7.21]”, for which the IC50 was found to be 25.6 nM.
The result for `c1cnc2cc(-c3ccn(C4CCC4)c3)nc(OC[C@@H]3CNCCO3)c2c1` [Compound 6.3, 7-(1-cyclobutyl-1H-pyrrol-3-yl)-5-{[(2S)-morpholin-2-yl]methoxy}-1,6-naphthyridine] reads 25.6 nM.

For orientation: IC50 means the point on the concentration scale where inhibition reaches its midpoint.
